Results published in patent US20060134102A1, “Lymphotoxin beta receptor agents in combination with chemotherapeutic agents” (Biogen Idec MA Inc., priority 2002, published 2006).

Tested on: WiDr human colorectal adenocarcinoma
Test: WiDr xenograft model: growth of established WiDr human colorectal tumors in athymic nude mice (tumor volume/weight, % T/C, Fa, Combination Index)
Details: day 35

COc1cccc2c1C(=O)c1c(O)c3c(c(O)c1C2=O)C[C@@](O)(C(=O)CO)C[C@@H]3O[C@H]1C[C@H](N)[C@H](O)[C@H](C)O1 [Adriamycin, adriamycin]
Tumor volume, individual animals (Adriamycin 4 mg/kg): 1087.2 | Tumor volume, individual animals (Adriamycin 6 mg/kg): 1017.1
